Reference: ChEMBL document CHEMBL1938337, “Discovery of novel, potent, and selective inhibitors of 3-phosphoinositide-dependent kinase (PDK1)” (J Med Chem, 2011)

Tests used:
Homo sapiens [1] = species: Homo sapiens; experiment: Selectivity ratio of IC50 for GSK3-beta to Ki for recombinant human His-tagged PDK1 catalytic domain
Homo sapiens [2] = species: Homo sapiens; experiment: Selectivity ratio of IC50 for MARK1 to Ki for recombinant human His-tagged PDK1 catalytic domain
SK-OV-3 = experiment: Ratio of IC50 for PDK1-mediated AKT1 phosphorylation at T308 in human SKOV3 cells to Ki for recombinant human His-tagged PDK1 catalytic domain; type: cell-based
A549 = experiment: Ratio of IC50 for PDK1-mediated AKT1 phosphorylation at T308 in human A549 cells to Ki for recombinant human His-tagged PDK1 catalytic domain; type: cell-based
Homo sapiens [3] = species: Homo sapiens; experiment: Selectivity ratio of IC50 for TrkA to Ki for recombinant human His-tagged PDK1 catalytic domain
Homo sapiens [4] = species: Homo sapiens; experiment: Selectivity ratio of IC50 for Aurora A to Ki for recombinant human His-tagged PDK1 catalytic domain
[5] = Selectivity ratio of Ki for mouse PI3Kalpha to Ki for recombinant human His-tagged PDK1 catalytic domain
Homo sapiens [6] = species: Homo sapiens; experiment: Selectivity ratio of Ki for recombinant GST-tagged P70S6K to Ki for recombinant human His-tagged PDK1 catalytic domain

Ratio (Homo sapiens [1])	Ratio (Homo sapiens [2])	Ratio (Homo sapiens [3])	Ratio (Homo sapiens [4])	Ratio Ki [5]	Ratio Ki (Homo sapiens [6])	Structure (SMILES)	Ratio (SK-OV-3)	Ratio (A549)
100	100	100	100	–	–	CC(C)n1cc(C(=O)c2cncc(N[C@@H]3CCN(C=O)[C@@H]3c3ccc(F)cc3)n2)c2c(N)ncnc21	100	100
100	100	100	100	1000	–	CC(=O)N1CC[C@@H](Nc2cncc(C(=O)c3cn(C(C)C)c4ncnc(N)c34)n2)[C@H]1c1ccc(F)cc1	100	100
–	–	–	–	500	–	CC(C)n1cc(C(=O)c2cncc(N[C@@H]3CCC[C@@H]3c3ccc(F)cc3)n2)c2c(N)ncnc21	–	–
–	–	–	–	–	50	CC(C)n1cc(C(=O)c2cncc(N[C@@H]3CCO[C@@H]3c3ccc(F)cc3)n2)c2c(N)ncnc21	–	–
100	100	100	100	–	–	CC(=O)N1CC[C@@H](Nc2cncc(C(=O)c3cn(C(C)C)c4ncnc(N)c34)n2)[C@H]1c1ccccc1	100	100
